This note sets out measurements from patent US8609650B2, “Bridged bicyclic aryl and bridged bicyclic heteroaryl substituted triazoles useful as Axl inhibitors” (Rigel Pharmaceuticals, Inc., priority 2006, dated 2013).

By UniProt entry, the sequences of proteins in these tests, tags left out. Residues count along the entry.
UniProt P30530, 26-894 limits assumed: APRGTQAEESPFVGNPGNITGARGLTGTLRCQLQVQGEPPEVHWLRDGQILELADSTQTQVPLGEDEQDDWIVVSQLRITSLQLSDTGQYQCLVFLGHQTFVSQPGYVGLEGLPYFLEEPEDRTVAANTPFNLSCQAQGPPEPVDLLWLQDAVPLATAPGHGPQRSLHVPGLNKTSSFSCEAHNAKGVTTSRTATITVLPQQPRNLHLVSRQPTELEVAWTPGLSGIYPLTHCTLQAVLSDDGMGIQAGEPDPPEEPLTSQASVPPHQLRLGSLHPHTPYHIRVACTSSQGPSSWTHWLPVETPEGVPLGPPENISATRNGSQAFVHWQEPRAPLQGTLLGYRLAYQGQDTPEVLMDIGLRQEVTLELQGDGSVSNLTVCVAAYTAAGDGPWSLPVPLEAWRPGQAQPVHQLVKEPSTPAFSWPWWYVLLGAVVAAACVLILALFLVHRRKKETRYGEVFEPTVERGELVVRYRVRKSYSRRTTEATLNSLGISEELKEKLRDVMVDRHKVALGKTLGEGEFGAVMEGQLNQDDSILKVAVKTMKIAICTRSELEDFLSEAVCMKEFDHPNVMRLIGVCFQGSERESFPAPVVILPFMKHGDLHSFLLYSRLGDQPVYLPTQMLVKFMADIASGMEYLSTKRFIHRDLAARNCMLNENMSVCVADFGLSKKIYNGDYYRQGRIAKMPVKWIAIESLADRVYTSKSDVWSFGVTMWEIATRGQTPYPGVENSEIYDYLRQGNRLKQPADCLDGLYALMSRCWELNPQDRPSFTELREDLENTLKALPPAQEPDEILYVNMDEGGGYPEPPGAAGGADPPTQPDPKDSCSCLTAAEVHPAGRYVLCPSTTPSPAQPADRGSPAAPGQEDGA

For this test, the target named is Axl (Homo sapiens, UniProt P30530). Briefly: Phospho-Akt In-Cell Western Assay (ability to inhibit Axl activity). The settings on record: Hela cells, stimulated by Axl-antibody cross-linking, phospho-Akt chemiluminescence normalized to relative cell number. The method, then: The compounds of the invention were tested in the following assay for their ability to inhibit Axl activity.
Phospho-Akt In-Cell Western Assay […]

Consider `Nc1nc(Nc2ccc(C3CCN(C4CC5CCC4C5)CC3)cc2)nn1-c1ncc2c(n1)C1CCC2C1` (stereo not shown), for which the IC50 (commonly the concentration that gives 50% inhibition) was > 20 µM.
